Test results from US6875741.

Biological target: Insulin Receptor (IR) of the BIAcore experiments (UniProt P06213)
Test: BIAcore, IR 450 nM pre-incubated with 13 µM MBP (negative control), residual binding to immobilised insulin

Work on “MBP-lacZ fusion protein (negative control) (from UniProt P0AEX9 27-392)” yielded a Result (RUs) of 209 RU.
